From PubChem BioAssay AID2551 (National Center for Advancing Translational Sciences (NCATS), 2010) come the findings set out here.

Chains of the proteins cited; added tags and fusions are not shown.
UniProt P51450, whole entry: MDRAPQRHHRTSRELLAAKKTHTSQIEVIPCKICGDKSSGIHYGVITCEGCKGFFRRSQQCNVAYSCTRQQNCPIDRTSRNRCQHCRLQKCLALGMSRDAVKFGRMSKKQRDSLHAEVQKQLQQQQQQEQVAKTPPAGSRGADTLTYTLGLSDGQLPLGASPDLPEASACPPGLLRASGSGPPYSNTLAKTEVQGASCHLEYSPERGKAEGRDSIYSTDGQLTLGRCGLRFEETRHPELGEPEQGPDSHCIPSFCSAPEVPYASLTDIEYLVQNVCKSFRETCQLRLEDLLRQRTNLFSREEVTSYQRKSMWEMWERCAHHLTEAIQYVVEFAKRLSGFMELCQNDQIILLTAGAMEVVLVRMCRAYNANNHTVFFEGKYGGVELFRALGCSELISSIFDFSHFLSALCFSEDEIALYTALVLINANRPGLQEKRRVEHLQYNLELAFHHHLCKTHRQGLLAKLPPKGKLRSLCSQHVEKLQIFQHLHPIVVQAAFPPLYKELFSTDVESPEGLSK

The list shows a part of the results, in another mix than the full data. Some of these compounds have results that are not shown, active ones among them. Results filed as inconclusive are left out. Active and inactive are the calls of the source. Calls follow the shape of the dose curve; as a rule, active = well fitted inhibition curve with a large enough effect; inconclusive = small, poorly fitted or top-dose-only effect, or effect the other way; inactive = no such curve, though single readings can be large or run the other way.
% is scaled to controls: 0 for no effect and ±100 for the full control effect.

This experiment has as its target Nuclear receptor ROR-gamma (Mus musculus) (UniProt P51450). Put plainly: qHTS for inhibitors of ROR gamma transcriptional activity. Also: nearly all actives have a fitted effect of over 60% in size. The note with it: Drosophila S2 Gal4-RORgamma UAS-luciferase reporter, 20 h; at 53.6 µM (top of the series).
Consider `CN1CCCC(OC(=O)C(O)(c2ccccc2)c2ccccc2)C1` (centres undefined), for which the activity change, negative = inhibition was inactive: 6.9%.

On to `Cc1ccccc1C(=O)NCC1(N2CCCCC2)CCCCC1`, for which the activity change, negative = inhibition was inactive: -1.87%.

With `CN(C)C1CCCC1OC(=O)C(O)(c1ccccc1)c1ccccc1` (centres undefined), the activity change, negative = inhibition was inactive: -27.3%.

With `CN(C)c1ccc(C(=O)NCC2(N(C)C)CCCCC2)cc1`, the activity change, negative = inhibition is inactive: -2.41%.

Take `Cc1cc(C(=O)NCC2(N3CCCCC3)CCCCC2)ccc1[N+](=O)[O-]`: the activity change, negative = inhibition was inactive: 0.0494%.

As for `CCN1CCCC(OC(=O)C2(O)c3ccccc3C=Cc3ccccc32)C1` (centres undefined), the activity change, negative = inhibition is inactive: 14.4%.

Turning to `COc1ccc(C(=O)NCC2(N(C)C)CCCCC2)cc1`, the activity change, negative = inhibition is inactive: -3.06%.

`C=CCN1CCN(CCOC(=O)C(O)(c2ccccc2)c2ccccc2)CC1`: the activity change, negative = inhibition was inactive: 6.97%.

As for `O=C(NCC1(N2CCCCC2)CCCCC1)c1cc(F)c(F)cc1Cl`, the activity change, negative = inhibition was inactive: 13.9%.

`CN1[C@@H]2CC[C@H]1CC(OC(=O)C(O)(c1ccccc1)c1ccccc1)C2` (some centres undefined): the activity change, negative = inhibition was inactive: 26.1%.

In the case of `O=C(NCC1(N2CCCCC2)CCCCC1)c1cc([N+](=O)[O-])ccc1Cl`, the activity change, negative = inhibition is inactive: 0.989%.

For `Cc1ccc(C(=O)NCC2(N3CCCCC3)CCCCC2)cc1`, the activity change, negative = inhibition was inactive: -0.0843%.

As to `CC(C)N1C(=O)CC2(CCN(CCOC(=O)C(O)(c3ccccc3)c3ccccc3)CC2)C1=O`, the activity change, negative = inhibition was inactive: 20.5%.

Turning to `CCN(CC)CC(C)C(C)OC(=O)C(O)(c1ccccc1)c1ccccc1` (centres undefined), the activity change, negative = inhibition is inactive: 0.431%.

In the case of `COc1cc(SC)ccc1C(=O)NCC1(N(C)C)CCCCC1`, the activity change, negative = inhibition was inactive: -0.51%.

As for `O=C(OC1CN2CCC1CC2)C(CO)(c1ccccc1)c1ccccc1` (centres undefined), the activity change, negative = inhibition is inactive: -2.64%.

Take `CN(C)c1cccc(C(=O)NCC2(N(C)C)CCCCC2)c1`: the activity change, negative = inhibition is inactive: 36.7%.

As to `CC(C)Oc1ccc(C(=O)NCC2(N(C)C)CCCCC2)cc1`, the activity change, negative = inhibition was inactive: -16.8%.

As to `COc1ccc(Br)c(C(=O)NCC2(N3CCCCC3)CCCCC2)c1`, the activity change, negative = inhibition was inactive: -5.1%.

Take `COc1cc(C(=O)NCC2(N(C)C)CCCCC2)c([N+](=O)[O-])cc1OC`: the activity change, negative = inhibition was inactive: 18.1%.

For `CN(C)C1(CNC(=O)c2ccc(Br)cc2)CCCCC1`, the activity change, negative = inhibition was inactive: -6.22%.

On to `O=C(NCC1(N2CCCCC2)CCCCC1)c1cccc(Cl)c1`, for which the activity change, negative = inhibition was inactive: 2.31%.

For the compound `COc1cccc(C(=O)NCC2(N3CCCCC3)CCCCC2)c1`, the activity change, negative = inhibition is inactive: -11.3%.

Consider `COc1ccc(Cl)cc1C(=O)NCC1(N(C)C)CCCCC1`, for which the activity change, negative = inhibition is inactive: -0.608%.
